Data: patent US20060178387A1, “Combined treatment with capecitabine and an epidermal growth factor receptor kinase inhibitor” (priority 2005, published 2006)

What was measured:
[1] = system: A-431 (human vulval epidermal cancer) cells; assay: Tumor-growth inhibition in vivo, A-431 xenograft in BALB/c nu/nu mice; details: capecitabine 359 mg/kg (66% of MTD) orally once daily for 14 days
[2] = Intestinal toxicity and myelotoxicity in mice bearing LoVo tumors; details: erlotinib 100 mg/kg/day, capecitabine 359 mg/kg, alone or combined, once daily for 14 days, day 15, mean ± SD, n=5
[3] = system: LoVo (human colon cancer) cells; assay: Tumor-growth inhibition in vivo, LoVo xenograft in BALB/c nu/nu mice; details: capecitabine 359 mg/kg (67% of MTD) orally once daily for 14 days
[4] = Tolerability (body weight, deaths, MTD) in tumor-bearing mice; format: in vivo, BALB/c nu/nu mice; details: mice bearing LoVo tumors; erlotinib 50, 75, 100 or 125 mg/kg once daily for 2 weeks
From the text: Male and female, 4-6-weeks old BALB/c nu/nu mice were obtained from Nippon Clea (Tokyo, Japan). All animals were allowed to acclimatize and recover from shipping-related stress for 1 week prior to the study. The health of the mice was monitored daily by observation.

Compound | tumor-growth inhibition ([1]; day 15) | tumor-growth inhibition ([1]; day 15, listed as capecitabine) [%] | WBC count [2] | tumor-growth inhibition ([3]; day 15) | tumor-growth inhibition ([3]; day 15, listed as capecitabine) [%] | weight loss (of the body weight at start of treatment) [4] [%]
CCCCCOC(=O)Nc1nc(=O)n([C@@H]2O[C@H](C)[C@@H](O)[C@H]2O)cc1F [Capecitabine, capecitabine] | 76** % | 76 | 3.9 ± 0.5 ×10^6 cells/ml | 43* % | 43 | 
C#Cc1cccc(Nc2ncnc3cc(OCCOC)c(OCCOC)cc23)c1 [Erlotinib, [6,7-bis(2-methoxyethoxy)-4-quinazolin-4-yl]-(3-ethynylphenyl)amine] |  |  | 5.0 ± 0.5 ×10^6 cells/ml |  |  | ≤ 20

Marks after values point to notes of the source that are not given here.
